The source of these data is ChEMBL document CHEMBL1140323, “Biaryl ureas as potent and orally efficacious melanin concentrating hormone receptor 1 antagonists for the treatment of obesity” (J Med Chem, 2005).

Chains of the proteins cited; added tags and fusions are not shown.
UniProt Q99705, whole entry: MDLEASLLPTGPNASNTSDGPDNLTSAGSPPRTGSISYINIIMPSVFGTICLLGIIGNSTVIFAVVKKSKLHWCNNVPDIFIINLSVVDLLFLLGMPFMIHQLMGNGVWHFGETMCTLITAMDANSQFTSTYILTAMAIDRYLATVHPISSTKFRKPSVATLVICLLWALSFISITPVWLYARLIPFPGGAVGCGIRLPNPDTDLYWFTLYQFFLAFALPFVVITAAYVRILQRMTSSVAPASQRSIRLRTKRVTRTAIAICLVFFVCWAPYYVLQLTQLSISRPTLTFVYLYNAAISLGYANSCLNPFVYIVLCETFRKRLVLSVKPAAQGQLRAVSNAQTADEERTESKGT

Molecules are shown by their SMILES. Some compounds may have been tested in ways that are not shown here.

The assay deals with Melanin-concentrating hormone receptor 1 (Homo sapiens, UniProt Q99705). Briefly: Inhibition of human melanin concentrating hormone receptor 1.
One may read the Ki as the equilibrium dissociation constant of an inhibitor or competing ligand from its target. A high value points to lower affinity. With `N#Cc1cccc(-c2ccc(N(C(=O)Nc3cc(Cl)cc(Cl)c3)C3CCN(C4CCCC4)CC3)cc2)c1`, the Ki is 2.6 nM.

`N#Cc1cccc(-c2ccc(N(C(=O)Nc3ccc(F)c(C(F)(F)F)c3)C3CCN(CC4CC4)CC3)cc2)c1` returned an inhibitory constant (Ki) of 4 nM. Against the preceding molecule, the Ki is about 1.5-fold higher.

Molecule `COc1cccc(NC(=O)N(c2ccc(-c3cccc(C#N)c3)cc2)C2CCN(C3CCCC3)CC2)c1` yielded an inhibition constant Ki of 98 nM.

The molecule `CCN1CCC(N(C(=O)Nc2ccc(F)c(C(F)(F)F)c2)c2ccc(-c3cccc(C#N)c3)cc2)CC1` came in with a Ki of 7.1 nM.

`O=C(Nc1cc(Cl)cc(Cl)c1)N(c1ccc(-c2cccc(C(F)(F)F)c2)cc1)C1CCN(C2CCCC2)CC1`: the Ki turned out to be 197 nM.

As to `N#Cc1cccc(-c2ccc(N(C(=O)Nc3ccccc3)C3CCN(C4CCCC4)CC3)cc2)c1`, the Ki was found to be 233 nM.

`N#Cc1cccc(-c2ccc(N(C(=O)Nc3ccc(F)c(Cl)c3)C3CCN(C4CCCC4)CC3)cc2)c1` came in with an inhibition constant (Ki) of 1.6 nM. Compared with the last molecule, the Ki is about 150-fold lower.

In turn, `N#Cc1cccc(-c2ccc(N(C(=O)Nc3ccc(F)c(C(F)(F)F)c3)C3CCN(C4CCCC4)CC3)cc2)c1` yielded a Ki of 1.9 nM.

With `COc1ccc(NC(=O)N(c2ccc(-c3cccc(C#N)c3)cc2)C2CCN(C3CCCC3)CC2)cc1`, the affinity corresponds to a Ki of 139 nM.

Take `N#Cc1cccc(-c2ccc(N(C(=O)Nc3cccc(Cl)c3)C3CCN(C4CCCC4)CC3)cc2)c1`: the affinity corresponds to a Ki of 5.8 nM.

Take `O=C(Nc1cc(Cl)cc(Cl)c1)N(c1ccc(-c2cccc(Cl)c2)cc1)C1CCN(C2CCCC2)CC1`: affinity was put at a Ki of 12.5 nM.

Turning to `O=C(Nc1cc(Cl)cc(Cl)c1)N(c1ccc(-c2cccc(OC(F)(F)F)c2)cc1)C1CCN(C2CCCC2)CC1`, affinity was put at a Ki of 20 nM.
